# Patent US20250313572A1, “MACROCYCLIC MCL-1 INHIBITORS AND METHODS OF USE” (AbbVie Inc., priority 2017, published 2025)
# Amino acid sequences for entries named in this document (tags omitted).
# UniProt Q07820, whole entry: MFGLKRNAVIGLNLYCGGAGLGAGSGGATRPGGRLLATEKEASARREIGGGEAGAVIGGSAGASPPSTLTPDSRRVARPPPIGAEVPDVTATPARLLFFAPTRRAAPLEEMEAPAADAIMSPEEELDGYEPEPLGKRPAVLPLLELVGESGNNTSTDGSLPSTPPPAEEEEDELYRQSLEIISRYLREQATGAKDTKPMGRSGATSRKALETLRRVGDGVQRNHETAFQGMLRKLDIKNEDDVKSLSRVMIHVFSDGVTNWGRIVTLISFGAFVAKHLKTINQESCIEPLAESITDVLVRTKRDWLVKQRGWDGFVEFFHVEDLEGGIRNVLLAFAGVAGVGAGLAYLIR
# How the values were obtained:
# [1] = test system: AMO-1 human multiple myeloma tumor cell line; assay: AMO-1 cell viability assay (CellTiter-Glo, 24 hours); assay type: cell-based
# From the text: (§1) The in vitro efficacy of exemplary MCL-1 inhibitors can be determined in cell-based killing assays using a variety of cell lines and mouse tumor models. For example, their activity on cell viability can be assessed on a panel of cultured tumorigenic and non-tumorigenic cell lines, as well as primary mouse or human cell populations. MCL-1 inhibitory activity of exemplary MCL-1 inhibitors was confirmed in a cell viability assay with AMO-1 and NCI-H929 human multiple myeloma tumor cell lines.
# (§2) In one exemplary set of conditions, NCI-H929 or AMO-1 (ATCC, Manassas, VA) were plated 4,000 cells per well in 384-well tissue culture plates (Corning, Corning, NY) in a total volume of 25 μL RPMI tissue culture medium supplemented with 10% fetal bovine serum (Sigma-Aldrich, St. Louis, MO) and treated with a 3-fold serial dilution of the compounds of interest with a Labcyte Echo from a final concentration of 10 µM to 0.0005 μM. Each concentration was tested in duplicate at least 3 independent times. A luminescent signal proportional to the number of viable cells following 24 hours of compound treatment was determined using the CellTiter-Glo® Luminescent Cell Viability Assay according to the manufacturer's recommendations (Promega Corp., Madison, WI). The plates were read in a Perkin Elmer Envision using a Luminescence protocol. […]
# [2] = test system: NCI-H929 human multiple myeloma tumor cell line; assay: NCI-H929 cell viability assay (CellTiter-Glo, 24 hours)
# From the text: as §1, §2
# GST-MCL-1 = GST-MCL-1 (Homo sapiens, UniProt Q07820); assay: TR-FRET MCL-1 binding assay (competition with probe F-Bak)
# Description: Tb-anti-GST antibody was purchased from Invitrogen (Catalog No. PV4216).
# For the assay, an acoustic dispenser was used to prepare dilution series from 10 mM test compounds in 100% DMSO and directly transfer 160 nL into low volume 384-well assay plates. 8 μL of a protein/probe/antibody mix was then added to each well resulting in final concentrations listed below: • Test compound: 11 three-fold dilutions beginning at 25 μM
# The samples were then mixed on a shaker for 1 minute and incubated for an additional 2 hours at room temperature. For each assay plate, a probe/antibody and protein/antibody/probe mixture were included as a negative and a positive control, respectively. Fluorescence was measured on the Envision (Perkin Elmer) using a 340/35 nm excitation filter and 520/525 (F-Bak) and 495/510 nm (Tb-labeled anti-his antibody) emission filters. Dissociation constants (Ki) were determined using Wang's equation (Wang, 1995, FEBS Lett. 360:111-114). The TR-FRET assay can be performed in the presence of varying concentrations of human serum (HS) or fetal bovine serum (FBS). Compounds were tested both without HS and in the presence of 10% HS.
compound,measurement,setting,value
Cc1c(Cl)c2c(Cl)c(C)c1-c1c(-c3ccc(F)cc3)sc3ncnc(c13)O[C@@H](C(=O)O)Cc1cc(ccc1OCc1ccnc(C3(COCCOC[C@H]4COCCO4)CCCC3)n1)OC[C@@H](CN1CCN(C)CC1)O2,IC50,"[1]; read-out: AMO-1 Viability IC50 (μM, 10% FBS), 24 hours of compound treatment, tested form: TFA",0.000161 µM
same,IC50,"[2]; read-out: H929 Viability IC50 (μM, 10% FBS), 24 hours of compound treatment, tested form: TFA",0.000687 µM
COCCOCCOCCOC[C@]1(F)CC[C@H](c2nccc(COc3ccc4cc3C[C@H](C(=O)O)Oc3ncnc5sc(-c6ccc(F)cc6)c(c35)-c3c(C)c(Cl)c(c(Cl)c3C)O[C@H](CN3CCN(C)CC3)CO4)n2)CC1,Ki,"GST-MCL-1; read-out: MCL-1 Binding Ki (nM, 10% HS), in the presence of 10% HS (human serum)",0.071 nM
same,Ki,"GST-MCL-1; read-out: MCL-1 Binding Ki, without HS",0.011 nM
same,IC50,"[1]; read-out: AMO-1 Viability IC50 (μM, 10% FBS), 24 hours of compound treatment",0.000192 µM
same,IC50,"[2]; read-out: H929 Viability IC50 (μM, 10% FBS), 24 hours of compound treatment",0.000198 µM

# Like-named read-outs stand apart in the source and are kept apart here.
